Measured values taken from ChEMBL document CHEMBL3352222, “2-Hexylthio-β,γ-CH2-ATP is an effective and selective NTPDase2 inhibitor” (J Med Chem, 2014).

Assay: Stability assessed as human NTPDase4-mediated compound hydrolysis
Details: read-out: Drug degradation

**Q.** For `CCCCCCSc1nc(N)c2ncn([C@@H]3O[C@H](COP(=O)(O)OP(=O)(O)CP(=O)(O)O)[C@@H](O)[C@H]3O)c2n1`, which metabolised is on record?
**A.** 3%
